{"source": "patent US20230095701A1", "about": "“Use of Albiflorin in Treatment of Coronavirus Pneumonia” (priority 2020, published 2023)", "key": {"cPLA2": {"test_system": "cPLA2", "experiment": "cPLA2 in hippocampus of chronic unpredictable mild stress (CUMS) rats", "settings": "7 days, 3.5 mg/day, 7 mg/day, 14 mg/day, P<0.01, dose dependency, FIG. 9"}, "PGF2α and 20-HETE": {"test_system": "PGF2α and 20-HETE", "experiment": "Inflammatory mediators in hippocampus of CUMS rats", "settings": "7 days, 7 mg/kg, FIG. 10"}}, "data": [{"compound": "C[C@]12C[C@@H](O)[C@@H]3C[C@@]1(O[C@@H]1O[C@H](CO)[C@@H](O)[C@H](O)[C@H]1O)[C@@]3(COC(=O)c1ccccc1)C(=O)O2", "note": "[Albiflorin]", "values": [{"measurement": "phospholipase A2 (cPLA2) in the hippocampus", "setting": "cPLA2", "result": "significantly decreased"}, {"measurement": "content of inflammatory mediators PGF2α and 20-HETE", "setting": "PGF2α and 20-HETE", "result": "reduce"}]}]}
